Binding of CDR-mutated scFvs to a peptide of the spike HR2 region

The measurements come from Engelhart et al. 2022 (doi:10.1038/s41597-022-01779-4) through the FLAb antibody collection.

The target is the same throughout: PDVDLGDISGINAS, from the HR2 region of SARS-CoV-2 spike.

Each scFv is VL, a 15-residue (Gly4Ser)3 linker, VH, as in the parent Ab-91, and differs from it in the CDRs of the heavy chain only.
VL: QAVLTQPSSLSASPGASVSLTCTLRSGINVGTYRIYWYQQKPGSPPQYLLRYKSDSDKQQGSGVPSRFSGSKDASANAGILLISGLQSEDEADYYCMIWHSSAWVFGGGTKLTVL
VH: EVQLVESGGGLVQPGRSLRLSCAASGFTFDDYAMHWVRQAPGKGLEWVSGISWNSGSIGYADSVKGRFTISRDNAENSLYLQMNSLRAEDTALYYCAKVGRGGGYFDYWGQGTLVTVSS

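Phage display of a naive human antibody library on the peptide gave the parent. AAYL51 was designed without a model: most single CDR substitutions and a random sample of double and triple ones. In AlphaSeq, yeast of one mating type display the scFv and yeast of the other type display the target. Binding brings cells together so that they mate, and sequencing counts the barcode pairs among the diploids. A regression on co-assayed BCL2-family reference pairs converts the normalised counts of each replicate to an apparent Kd. Each pool was mated in three replicate cultures.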

Positions count from residue 1 of the parent VH; F27D puts D in place of F.
This list gathers variants with a substitution at V99 (VH, numbered from residue 1).
Kd is apparent (estimated from mating counts) and averaged on the log scale over replicates with a signal. Smaller is tighter.
A pair that was not seen in any replicate is written "nd"; this usually means weak binding, but a binder can also be missed.

- F27D V99H G102M: nd (0 of 3 replicates; controls 1 of 9)
- F27M D30T V99G: 1.4 µM (1 of 3 replicates; controls 2 of 9)
- I51T V99H: nd (0 of 3 replicates; controls 0 of 9)
- S52F A61R V99W: nd (0 of 3 replicates; controls 1 of 9)
- S52K G59V V99R: nd (0 of 3 replicates; controls 0 of 9)
- V99I: 37 nM (3 of 3 replicates; controls 3 of 9)
- Y60S V99H F106Q: nd (0 of 3 replicates; controls 1 of 9)
- V99A G100V G102W: 170 µM (3 of 3 replicates; controls 8 of 9)
- S52V V99E Y105T: 38 µM (1 of 3 replicates; controls 4 of 9)
- F29N S55F V99M: nd (0 of 3 replicates; controls 0 of 9)
- T28D V99N G103V: nd (0 of 3 replicates; controls 0 of 9)
- G26V F27V V99M: nd (0 of 3 replicates; controls 0 of 9)
- G59S D62N V99N: 24 µM (2 of 3 replicates; controls 2 of 9)
- V99C Y105N: nd (0 of 3 replicates; controls 0 of 9)
- F27K V99F Y105P: nd (0 of 3 replicates; controls 1 of 9)
- I58M V99Q G100E: 1.1 µM (3 of 3 replicates; controls 4 of 9)
- G50R I58C V99H: 170 µM (1 of 3 replicates; controls 3 of 9)
- F27R V99M G100W: nd (0 of 3 replicates; controls 0 of 9)
- G26A V99W: nd (0 of 3 replicates; controls 0 of 9)
- I51K S52T V99E: nd (0 of 3 replicates; controls 0 of 9)
- F29K W53I V99M: nd (0 of 3 replicates; controls 1 of 9)
- G50V I58M V99T: 71 µM (1 of 3 replicates; controls 0 of 9)
- G56T V99E R101Y: nd (0 of 3 replicates; controls 1 of 9)
- S52I V99H: 58 µM (2 of 3 replicates; controls 1 of 9)
- D30F D62K V99A: nd (0 of 3 replicates; controls 0 of 9)
- G56R V99S D107H: nd (0 of 3 replicates; controls 2 of 9)
- V99F G100V Y105L: 44 nM (3 of 3 replicates; controls 1 of 9)
- F29A V99R: nd (0 of 3 replicates; controls 0 of 9)
- S57P V99S F106R: nd (0 of 3 replicates; controls 0 of 9)
- D30S V99E D107L: 480 µM (2 of 3 replicates; controls 0 of 9)
- I51D V99Y Y105V: 39 µM (3 of 3 replicates; controls 7 of 9)
- F29S D31G V99G: nd (0 of 3 replicates; controls 0 of 9)
- Y32C S63R V99L: nd (0 of 3 replicates; controls 2 of 9)
- Y60H V99P: 29 µM (2 of 3 replicates; controls 1 of 9)

In this assay the parent's reference entry averaged 72 nM; its copy inside this library read 7.5 nM.
Three control strains display no target. For library AAYL51, 21% of the pairings with them gave a signal, with a median of 34 µM and one signal in twenty below 1.8 µM, so weak values seen in few replicates may be background. Also given: how often the same scFv was detected with the empty control strains.